Consider 92 compounds from PubChem BioAssay AID504734 (The Scripps Research Institute Molecular Screening Center, 2011).

The chains behind the UniProt entries cited, without tags or fusion partners.
UniProt Q9NR96, whole entry: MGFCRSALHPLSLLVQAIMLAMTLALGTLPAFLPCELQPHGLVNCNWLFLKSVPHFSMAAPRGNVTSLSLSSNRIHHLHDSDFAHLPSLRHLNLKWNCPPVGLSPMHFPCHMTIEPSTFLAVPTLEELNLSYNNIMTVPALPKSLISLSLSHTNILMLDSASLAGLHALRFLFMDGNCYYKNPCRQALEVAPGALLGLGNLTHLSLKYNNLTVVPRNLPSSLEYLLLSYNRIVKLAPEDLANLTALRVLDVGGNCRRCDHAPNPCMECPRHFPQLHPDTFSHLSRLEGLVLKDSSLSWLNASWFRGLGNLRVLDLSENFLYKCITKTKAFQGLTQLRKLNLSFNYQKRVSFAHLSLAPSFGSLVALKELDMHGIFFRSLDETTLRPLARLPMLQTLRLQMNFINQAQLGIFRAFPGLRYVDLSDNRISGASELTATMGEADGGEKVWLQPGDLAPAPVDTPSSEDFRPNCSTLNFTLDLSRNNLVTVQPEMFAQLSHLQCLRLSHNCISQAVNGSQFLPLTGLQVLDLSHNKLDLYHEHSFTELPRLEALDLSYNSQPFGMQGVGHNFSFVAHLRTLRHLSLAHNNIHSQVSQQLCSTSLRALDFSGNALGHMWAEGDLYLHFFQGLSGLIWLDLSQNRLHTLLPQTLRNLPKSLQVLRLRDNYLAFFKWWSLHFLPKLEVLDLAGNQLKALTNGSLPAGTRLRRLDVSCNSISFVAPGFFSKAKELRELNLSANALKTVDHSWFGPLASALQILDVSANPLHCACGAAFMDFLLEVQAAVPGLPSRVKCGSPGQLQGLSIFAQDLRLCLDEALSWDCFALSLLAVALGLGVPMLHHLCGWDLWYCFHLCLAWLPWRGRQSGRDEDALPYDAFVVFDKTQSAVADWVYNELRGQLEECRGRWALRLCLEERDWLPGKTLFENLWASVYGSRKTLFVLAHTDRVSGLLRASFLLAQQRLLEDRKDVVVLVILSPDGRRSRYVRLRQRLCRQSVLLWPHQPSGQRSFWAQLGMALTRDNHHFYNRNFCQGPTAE

This is a selection; strong and weak results do not stand in their true shares. Some salts and complexes are drawn in separate pieces, as the source files them; their charges need not balance. The source made the active and inactive calls.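 The calls were made as follows: active = inhibition above the mean over all tested compounds plus 3 SD (cut at about 21% in these data); inactive = the rest.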

In this assay the target is Toll-like receptor 9 (Homo sapiens) + Myeloid differentiation primary response protein MyD88 (Homo sapiens) (UniProt Q9NR96+Q99836). Nature of the assay: inhibitors of TLR9-MyD88 association in cells, primary screen, cell-based, CHO, BLA complementation, fluorescence (AID 504734).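 Also: 0% = DMSO only wells and 100% = clavulanate BLA inhibitor control wells.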 The settings on record: CHO BLA complementation TLR9-MyD88, CCF4 FRET ratio; at 4.98 µM; active compounds read high.
Turning to `CCN(CC)CC(O)COC(=O)C(O)(c1ccccc1)C1CCCCC1` (configuration not stated), the inhibition (commonly the drop in the measured response relative to a control, in per cent) was inactive: -1.13%.
Turning to `COc1ccc(OP(C)(=O)Nc2ccc(Br)cc2)cc1` (configuration not stated), the inhibition is inactive: -0.22%.
On to `CP(=O)(Oc1ccccc1)N1CCOC1=O` (configuration not stated), for which the inhibition was inactive: 1.87%.
The figure for `CCc1ccc(OP(C)(=O)Nc2cccnc2)cc1` (configuration not stated) is inactive: 2.41%.
Take `COc1ccccc1OP(C)(=O)Nc1c(C)n(C)n(-c2ccccc2)c1=O` (configuration not stated): the inhibition was inactive: -1.4%.
For `O=C(OCCCN1CCCC1)C(O)(c1ccccc1)C1CCCCC1` (configuration not stated), the inhibition is inactive: 13.8%.
The figure for `CP(=O)(Nc1ccc(Cl)cc1)Oc1ccc(F)cc1` (configuration not stated) is inactive: -2.09%.
The figure for `CC(C)(C)c1ccc(OP(C)(=O)O)cc1` is inactive: -0.44%.
On to `COc1ccccc1OP(C)(=O)Nc1ccccc1Br` (configuration not stated), for which the inhibition is inactive: 4.3%.
The figure for `CN(C)C(=O)c1c([N+](=O)[O-])cc([N+](=O)[O-])cc1[N+](=O)[O-]` is inactive: 1.85%; for `CP(=O)(OC12CC3CC(CC(C3)C1)C2)OC12CC3CC(CC(C3)C1)C2` it is inactive: -6.93%; for `CCOC(=O)c1ccc(NP(C)(=O)Oc2ccc(Cl)cc2)cc1` (configuration not stated) it is inactive: 7.47%.
On to `O=C1C(O)=C([N+](=O)[O-])C(=O)C(O)=C1[N+](=O)[O-]`, for which the inhibition was inactive: 6.26%.
With `Cc1cc(C)cc(OP(C)(=O)Nc2cccc(C(F)(F)F)c2)c1` (configuration not stated), the inhibition is inactive: -3.79%.
The same measure for `COc1ccc(OP(C)(=O)Nc2ccccc2Br)cc1` (configuration not stated): inactive: 4.16%; for `COc1ccccc1OP(C)(=O)Nc1ccc(C)c(C)c1` (configuration not stated): inactive: 2.86%; for `CP(=O)(OCCOc1ccccc1)OCCOc1ccccc1`: inactive: -14.7%.
For the compound `CP(=O)(Nc1ccc(Cl)cc1Cl)Oc1ccccc1` (configuration not stated), the inhibition is inactive: 4.22%.
The figure for `CCCCCCCCCCCCCCCC1C[N+](C)(C)CCOP(C)(=O)O1` (configuration not stated) is inactive: -3.42%; for `COc1ccccc1OP(C)(=O)Nc1ccc(Br)cc1` (configuration not stated) it is inactive: -4.93%; for `CN(C)CCOC(=O)C(O)(c1ccccc1)C1CCCC1` (configuration not stated) it is inactive: 7.4%.
The same measure for `COc1ccc(OP(C)(=O)Nc2ccccn2)cc1` (configuration not stated): inactive: -5.66%.
Consider `O=[N+]([O-])c1cc([N+](=O)[O-])c(Nc2ccccn2)c([N+](=O)[O-])c1`, for which the inhibition was inactive: 4.48%.
For the compound `Cc1c(NP(C)(=O)Oc2ccc(C(C)C)cc2)c(=O)n(-c2ccccc2)n1C` (configuration not stated), the inhibition is inactive: 0.88%.
Turning to `CCc1ccc(OP(C)(=O)O)cc1`, the inhibition is inactive: -2.07%.
As to `CP(=O)(Nc1ccccn1)Oc1ccccc1` (configuration not stated), the inhibition is inactive: 4.86%.
The same measure for `COc1ccccc1OP(C)(=O)Nc1ccc(C)cc1C` (configuration not stated): inactive: 2.91%; for `O=[N+]([O-])c1cc([N+](=O)[O-])c(Nc2ccc(Cl)cc2)c([N+](=O)[O-])c1`: inactive: -10.7%.
Turning to `CC(C)c1ccc(OP(C)(=O)Nc2ccc(SC(F)(F)F)cc2)cc1` (configuration not stated), the inhibition is inactive: -1.02%.
The same measure for `CP(=O)(Nc1ccccc1F)Oc1ccccc1` (configuration not stated): inactive: -6.92%.
The figure for `O=C(OCCN1CCN(CCOCc2ccccc2)CC1)C(O)(c1ccccc1)c1ccccc1` is inactive: -12.2%.
The same measure for `O=C(OC1CN2CCC1CC2)c1ccc([N+](=O)[O-])cc1` (configuration not stated): inactive: -2.66%; for `COc1ccc2c(c1O)-c1c(O)c(OC)cc3c1[C@H](C2)[N+](C)(C)CC3.O=[N+]([O-])c1cc([N+](=O)[O-])c([O-])c([N+](=O)[O-])c1[O-]`: inactive: -1.58%; for `COc1ccc(OP(C)(=O)Nc2ccc(SC(F)(F)F)cc2)cc1` (configuration not stated): inactive: 5.33%.
For `CCOC(=O)c1ccc(NP(C)(=O)Oc2ccc(F)cc2)cc1` (configuration not stated), the inhibition was inactive: -4.04%.
The same measure for `CCN(CC)CCCOC(=O)C(O)(c1ccccc1)C1CCCCC1` (configuration not stated): inactive: -5.84%; for `Cc1c([N+](=O)[O-])cc([N+](=O)[O-])c(Br)c1[N+](=O)[O-]`: inactive: -8.25%.
In the case of `O=[N+]([O-])c1cc([N+](=O)[O-])c(OC2CCCCC2O)c([N+](=O)[O-])c1` (configuration not stated), the inhibition was inactive: -0.48%.
Consider `CCCCCOc1ccc(NP(C)(=O)Oc2ccc(Cl)cc2Cl)cc1` (configuration not stated), for which the inhibition was inactive: 7.47%.
Regarding `CP(=O)(Nc1ccccc1)Oc1ccc(F)cc1` (configuration not stated), the inhibition is inactive: 1.17%.
For the compound `COc1ccc(OP(C)(=O)Nc2cccc(Br)c2)cc1` (configuration not stated), the inhibition is inactive: 3.01%.
As for `COc1ccc(NP(C)(=O)Oc2ccccc2OC)cc1` (configuration not stated), the inhibition is inactive: 1.67%.
The figure for `CN(C)CCOC(=O)C(O)(c1ccccc1)C1CCCCC1` (configuration not stated) is inactive: -19.7%; for `Cc1cc(-c2cccc3ccccc23)c(C)cn1.O=[N+]([O-])c1cc([N+](=O)[O-])c(O)c([N+](=O)[O-])c1` it is inactive: 0.86%; for `O=[N+]([O-])c1cc([N+](=O)[O-])c(NCC2CCS(=O)(=O)C2)c([N+](=O)[O-])c1` (configuration not stated) it is inactive: -4.84%.
The figure for `O=[N+]([O-])c1ccc(OP2(=O)COCCO2)cc1` (configuration not stated) is inactive: 1.69%.
Consider `Cc1c(C(c2ccc3c(c2)OCO3)c2c(C)n(C)n(-c3ccccc3)c2=O)c(=O)n(-c2ccccc2)n1C.O=[N+]([O-])c1cc([N+](=O)[O-])c(O)c([N+](=O)[O-])c1`, for which the inhibition is inactive: 2.83%.
The figure for `CP(=O)(Nc1ccc(SC(F)(F)F)cc1)Oc1ccc(F)cc1` (configuration not stated) is inactive: -3.46%; for `CCOP(C)(=S)SCC(=O)NC(C)(CC)C(=O)O` (configuration not stated) it is inactive: 3.13%.
The same measure for `CP(=O)(Nc1ccc2c(c1)OCCO2)Oc1ccccc1` (configuration not stated): inactive: -5.82%.
With `Cc1ccccc1NP(C)(=O)Nc1ccccc1C`, the inhibition was inactive: 6.75%.
With `O=[N+]([O-])c1cc([N+](=O)[O-])c(-n2nnc3ccccc32)c([N+](=O)[O-])c1`, the inhibition is inactive: -1.88%.
Regarding `O=[N+]([O-])c1cc([N+](=O)[O-])c(-c2cnn(-c3ccccc3)c2)c([N+](=O)[O-])c1`, the inhibition is inactive: -1.1%.
The same measure for `Cc1nc2ccc3ccccc3c2s1.O=[N+]([O-])c1cc([N+](=O)[O-])c(O)c([N+](=O)[O-])c1`: inactive: -2.04%; for `O=[N+]([O-])c1cc([N+](=O)[O-])c(Nc2nnnn2CCO)c([N+](=O)[O-])c1`: inactive: 1.06%; for `CC1=C2N=C(C=C3N=C(C(C)=C4[N-][C@@](C)([C@@H]5N=C1[C@](C)(CCC(=O)NC[C@@H](C)OP(=O)([O-])O[C@H]1[C@@H](O)[C@@H](n6cnc7cc(C)c(C)cc76)O[C@@H]1CO)[C@H]5CC(N)=O)[C@@](C)(CC(N)=O)[C@@H]4CCC(N)=O)[C@@](C)(CC(N)=O)[C@@H]3CCC(N)=O)C(C)(C)[C@@H]2CCC(N)=O.[C-]#N.[Co+3]`: inactive: -8.98%.
The same measure for `CCOC(=O)C(CC)C1=NC(C)(C)Cc2ccccc21.O=[N+]([O-])c1cc([N+](=O)[O-])c(O)c([N+](=O)[O-])c1` (configuration not stated): inactive: -9.34%.
On to `COc1ccccc1OP(C)(=O)Nc1c(C)cccc1C` (configuration not stated), for which the inhibition was inactive: -10.2%.
On to `CN1CCCCC1COC(=O)C1(O)c2ccccc2CCc2ccccc21` (configuration not stated), for which the inhibition was inactive: 0.21%.
The figure for `CP(=O)(Nc1ccc(SC(F)(F)F)cc1)Oc1ccccc1` (configuration not stated) is inactive: 2.21%; for `CCCOc1ccc(NP(C)(=O)Oc2ccc(Cl)cc2)cc1` (configuration not stated) it is inactive: 0.39%; for `O=C(O)c1cccc(Nc2c([N+](=O)[O-])cc([N+](=O)[O-])cc2[N+](=O)[O-])c1` it is inactive: -0.19%.
As to `CC1=NCCc2c1[nH]c1ccccc21.O=[N+]([O-])c1cc([N+](=O)[O-])c(O)c([N+](=O)[O-])c1`, the inhibition was inactive: 1.44%.
The figure for `COc1ccccc1OP(C)(=O)Nc1cccc(Br)c1` (configuration not stated) is inactive: -7.15%; for `Cc1cc(C)cc(OP(C)(=O)Nc2ccc(C)cc2C)c1` (configuration not stated) it is inactive: 1.63%.
The same measure for `CCOC(=O)c1ccc(NP(C)(=O)Oc2cc(C)cc(C)c2)cc1` (configuration not stated): inactive: 0.05%; for `CP(=O)(Nc1cccc(Br)c1)Oc1ccccc1` (configuration not stated): inactive: -5.32%; for `Cc1cc(C)cc(OP(C)(=O)Nc2ccccn2)c1` (configuration not stated): inactive: 8.01%.
For the compound `Cc1ccc(C)c(NP(C)(=O)Oc2ccccc2)c1` (configuration not stated), the inhibition is inactive: 5.89%.
For `CCN(CC)CCCOC(=O)C(O)(c1ccccc1)c1ccccc1`, the inhibition is inactive: -2.1%.
The same measure for `O=[N+]([O-])c1cc([N+](=O)[O-])c(Nc2cccnc2)c([N+](=O)[O-])c1`: inactive: -11.6%; for `CC(C)(C)c1ccc(OP(C)(=O)Nc2ccc(SC(F)(F)F)cc2)cc1` (configuration not stated): inactive: -4.26%.
The figure for `Cc1cccc(C)c1OP(C)(N)=O` (configuration not stated) is inactive: -0.56%.
Regarding `O=[N+]([O-])c1ccc2c(c1)C=Nc1ccccc1O2`, the inhibition is inactive: 4.45%.
As to `CCOC(=O)c1ccc(NP(C)(=O)Oc2ccccc2)cc1` (configuration not stated), the inhibition is inactive: 2.58%.
The same measure for `COc1ccccc1OP(C)(=O)Nc1ccc(C)cc1` (configuration not stated): inactive: -10.6%; for `Cc1ccc(NP(C)(=O)Oc2ccccc2)c(C)c1` (configuration not stated): inactive: -0.14%.
For the compound `COc1ccccc1OP(C)(=O)Nc1cc(Cl)ccc1C` (configuration not stated), the inhibition is inactive: -6.73%.
With `COc1ccc(OP(C)(=O)Nc2cccc(F)c2)cc1` (configuration not stated), the inhibition is inactive: 0.74%.
For `Cc1cc(C)cc(OP(C)(N)=O)c1` (configuration not stated), the inhibition is inactive: -7.27%.
As for `CP(=S)(Nn1cnnc1)Oc1ccccc1` (configuration not stated), the inhibition is inactive: 4.19%.
The same measure for `COc1ccccc1OP(C)(=O)Nc1ccccc1` (configuration not stated): inactive: -1.18%; for `CP(=O)(Nc1ccccc1Br)Oc1ccccc1` (configuration not stated): inactive: -3.73%.
As to `Cc1ccc(Nc2c([N+](=O)[O-])cc([N+](=O)[O-])cc2[N+](=O)[O-])cc1`, the inhibition is inactive: -0.89%.
As to `Cc1cccc(C)c1OP(C)(=O)Nc1ccc(SC(F)(F)F)cc1` (configuration not stated), the inhibition was inactive: -2.85%.
The figure for `CP(=O)(Oc1ccccc1)OC(c1ccccc1)C(F)(F)F` (configuration not stated) is inactive: 2.04%; for `CCc1ccc(OP(C)(=O)N2CCN(c3ccc([N+](=O)[O-])cc3)CC2)cc1` (configuration not stated) it is inactive: 8.34%; for `CP(=O)(NC(=O)Nc1ccccc1)Oc1ccccc1` (configuration not stated) it is inactive: 3.37%.
The figure for `Cc1cc(C)cc(OP(C)(=O)Nc2ccc(SC(F)(F)F)cc2)c1` (configuration not stated) is inactive: 5.37%.
For the compound `CCOP(C)(=S)SCC(=O)NC(C)C(=O)O` (configuration not stated), the inhibition is inactive: 5.61%.
The same measure for `CCOC(=O)c1ccc(NP(C)(=O)Oc2ccc(OC)cc2)cc1` (configuration not stated): inactive: 1.02%.
The same measure for `CP(=O)(Nc1ccccn1)Oc1ccc(Cl)cc1` (configuration not stated): inactive: 9.21%.
